Chains of the proteins cited; added tags and fusions are not shown. Lines headed by an entry give the natural chain unless they say otherwise; changes in a name come on top.
UniProt P42338: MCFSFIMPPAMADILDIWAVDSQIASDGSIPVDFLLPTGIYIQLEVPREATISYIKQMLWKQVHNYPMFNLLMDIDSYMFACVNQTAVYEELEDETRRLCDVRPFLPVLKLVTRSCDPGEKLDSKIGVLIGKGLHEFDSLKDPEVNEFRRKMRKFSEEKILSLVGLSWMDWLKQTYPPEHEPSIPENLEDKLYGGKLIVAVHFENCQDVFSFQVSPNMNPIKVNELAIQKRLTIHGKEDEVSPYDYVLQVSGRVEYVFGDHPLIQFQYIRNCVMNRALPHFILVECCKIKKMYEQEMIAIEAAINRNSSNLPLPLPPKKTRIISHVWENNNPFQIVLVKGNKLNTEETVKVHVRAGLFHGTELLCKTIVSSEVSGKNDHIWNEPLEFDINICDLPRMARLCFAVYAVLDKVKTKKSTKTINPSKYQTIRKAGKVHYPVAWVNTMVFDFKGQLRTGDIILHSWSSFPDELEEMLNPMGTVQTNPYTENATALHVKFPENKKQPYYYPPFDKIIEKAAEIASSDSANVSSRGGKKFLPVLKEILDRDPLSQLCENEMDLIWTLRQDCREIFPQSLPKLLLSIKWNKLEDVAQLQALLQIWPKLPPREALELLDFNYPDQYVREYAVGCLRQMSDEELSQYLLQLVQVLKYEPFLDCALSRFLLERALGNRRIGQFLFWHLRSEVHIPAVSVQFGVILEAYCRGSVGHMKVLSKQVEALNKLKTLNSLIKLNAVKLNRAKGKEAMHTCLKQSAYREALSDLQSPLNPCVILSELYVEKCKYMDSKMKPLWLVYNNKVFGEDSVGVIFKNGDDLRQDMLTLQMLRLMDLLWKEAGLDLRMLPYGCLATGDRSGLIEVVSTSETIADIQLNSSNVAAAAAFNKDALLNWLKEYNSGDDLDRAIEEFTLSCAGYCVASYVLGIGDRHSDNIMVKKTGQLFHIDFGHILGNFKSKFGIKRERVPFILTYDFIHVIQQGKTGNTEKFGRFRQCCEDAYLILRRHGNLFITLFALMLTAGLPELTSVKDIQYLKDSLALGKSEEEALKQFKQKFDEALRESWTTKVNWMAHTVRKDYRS

According to ChEMBL document CHEMBL2062364, “Discovery and optimization of new benzimidazole- and benzoxazole-pyrimidone selective PI3Kβ inhibitors for the treatment of phosphatase and TENsin homologue (PTEN)-deficient cancers” (J Med Chem, 2012):

Key:
[1] = biological target: T1, Phosphatidylinositol 4,5-bisphosphate 3-kinase catalytic subunit delta isoform (Homo sapiens, UniProt O00329); test: Inhibition of poly-His tagged human PI3Kdelta expressed in baculovirus infected insect sf9 cells coexpressing p85alpha using PI(4,5)P2 as substrate preincubated with compound for 15 mins measured after 10 mins by HTRF assay
T1 sequence (O00329 whole entry): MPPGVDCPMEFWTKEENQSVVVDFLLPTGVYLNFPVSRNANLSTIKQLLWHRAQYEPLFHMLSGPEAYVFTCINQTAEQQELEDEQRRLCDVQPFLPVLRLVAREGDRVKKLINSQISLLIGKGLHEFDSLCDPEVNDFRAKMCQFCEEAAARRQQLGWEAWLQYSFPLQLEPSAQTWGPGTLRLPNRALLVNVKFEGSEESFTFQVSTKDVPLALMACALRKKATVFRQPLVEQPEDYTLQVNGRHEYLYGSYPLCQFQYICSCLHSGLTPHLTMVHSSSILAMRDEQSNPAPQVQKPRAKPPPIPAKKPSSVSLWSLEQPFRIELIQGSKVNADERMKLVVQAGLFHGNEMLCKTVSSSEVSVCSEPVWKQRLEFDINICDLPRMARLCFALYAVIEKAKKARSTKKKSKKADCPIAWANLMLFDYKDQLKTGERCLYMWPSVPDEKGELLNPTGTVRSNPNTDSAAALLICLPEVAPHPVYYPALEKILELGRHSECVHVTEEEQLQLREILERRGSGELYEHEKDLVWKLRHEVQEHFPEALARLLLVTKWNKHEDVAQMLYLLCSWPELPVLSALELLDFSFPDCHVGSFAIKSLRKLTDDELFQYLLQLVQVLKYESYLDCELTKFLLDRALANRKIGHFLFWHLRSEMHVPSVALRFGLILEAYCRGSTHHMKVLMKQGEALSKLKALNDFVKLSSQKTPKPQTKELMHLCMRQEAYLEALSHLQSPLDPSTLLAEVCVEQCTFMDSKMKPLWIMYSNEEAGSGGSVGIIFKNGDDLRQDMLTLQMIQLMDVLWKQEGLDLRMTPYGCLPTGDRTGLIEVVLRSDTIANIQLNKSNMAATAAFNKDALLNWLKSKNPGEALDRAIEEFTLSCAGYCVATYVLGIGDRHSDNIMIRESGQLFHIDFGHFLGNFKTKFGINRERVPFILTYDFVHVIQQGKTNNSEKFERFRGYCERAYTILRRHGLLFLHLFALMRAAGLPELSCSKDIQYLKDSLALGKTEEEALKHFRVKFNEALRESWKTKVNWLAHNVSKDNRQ

[2] = biological target: T2, Phosphatidylinositol 4,5-bisphosphate 3-kinase catalytic subunit beta isoform (Homo sapiens, UniProt P42338); test: Inhibition of N-terminus poly-His tagged human PI3Kbeta expressed in baculovirus infected insect […] cells coexpressing p85alpha using PI(4,5)P2 as substrate preincubated with compound for 15 mins measured after 10 mins by HTRF assay
[3] = biological target: T2, Phosphatidylinositol 4,5-bisphosphate 3-kinase catalytic subunit beta isoform; test: Inhibition of human PI3Kbeta-mediated Akt phosphorylation at T308 residue expressed in PTEN-deficient human PC3 cells after 2 hrs by Western blot analysis; format: cell-based, PC-3

Compound | IC50 [1] | IC50 [2] | IC50 [3]
Cn1c(Cc2nc(N3CCOCC3)cc(=O)[nH]2)nc2ccccc21 | 1.39 µM |  | 
Cc1cc(C(C)Nc2ccccc2)c2nc(N3CCOCC3)cc(=O)n2c1 (stereo not drawn) |  | 0.03 µM | 0.003 µM
